{
  "source": "patent US8481497B2",
  "about": "“Therapeutic agent for cancer, and method for treatment of cancer” (Sapporo Medical University, priority 2007, dated 2013)",
  "molecules": {"B1": {"name": "IFN-beta: IFN-beta (Feron, manufactured by Toray) (protein, UniProt P01574 22-187, looked up)", "Interferon beta": "MSYNLLGFLQRSSNFQCQKLLWQLNGRLEYCLKDRMNFDIPEEIKQLQQFQKEDAALTIYEMLQNIFAIFRQDSSSTGWNETIVENLLANVYHQINHLKTVLEEKLEKEDFTRGKLMSSLHLKRYYGRILHYLKAKEYSHCAWTIVRVEILRNFYFINRLTGYLRN"}},
  "type_in_all_cases": "cell-based",
  "key": {"[1]": {"system": "FGFR1 in hepatic cancer cell line huH-7", "experiment": "FGFR1 expression at protein level in hepatic cancer cell line by western blotting", "settings": "1,000 IU/ml, 48 hours, huH-7, western blotting", "method": "1,000 IU/ml of IFN-alpha or IFN-beta was administered to a hepatic cancer cell line huH-7. 48 hours after administration, a change of FGFR1 was examined by western blotting. From this profile, the expression level of FGFR1 at the protein level was increased by administering IFN-alpha or IFN-beta."}, "[2]": {"system": "FGFR1 in hepatic cancer cell line huH-7", "experiment": "FGFR1 expression in hepatic cancer cell line by FACS", "settings": "1,000 IU/ml, 48 hours, huH-7, FACS", "method": "1,000 IU/ml of IFN-alpha or IFN-beta was administered to a hepatic cancer cell line huH-7. 48 hours after administration, a change of FGFR1 was examined by FACS."}, "huH-7 cells": {"system": "huH-7 cells", "experiment": "Growth inhibition of hepatic cancer cell line (cell number and survival rate)", "settings": "huH-7, cultured 0 to 6 days, agent added alone", "method": "To examine the influence of administration of IFN-beta and the anti-FGFR1 antibody on a hepatic cancer cell line, the proliferation and survival rate of a hepatic cancer cell line were examined in the presence of IFN-beta (Feron, manufactured by Toray) and the anti-FGFR1 antibody. First, 1.0×10^4. huH-7 cells were seeded to each well of a 24-well plate, then the anti-FGFR1 antibody prepared in Example 2 or an antibody-free culture supernatant as a negative control was added. Cells to which nothing was added were used as control. Then the cells were cultured for 0 to 6 days. Thereafter, the cells were detached with trypsin, and the number and survival rate of cells were measured. […] However, by adding the anti-FGFR1 antibody in addition to IFN-beta, the survival rate was about 40% lowered compared to the case anti-FGFR1 antibody was not administered."}},
  "data": [
    {"molecule": "B1", "values": [
      {"measurement": "expression level of FGFR1 at the protein level", "setting": "[1]", "result": "increased"},
      {"measurement": "expression level of FGFR1", "setting": "[2]", "result": "increased"},
      {"measurement": "cell growth", "setting": "huH-7 cells", "result": "inhibition of the cell growth"},
      {"measurement": "survival rate", "setting": "huH-7 cells", "result": "decrease in the survival rate"}
    ]}
  ]
}
